Target: anti-murine CD8α mAb
Experiment: ELISA, H57 capture, anti-CD8α mAb probe

OT1-CD8-T2M fusion protein complex (from UniProt P01731 28-196; P10300 22-175) (Fc fusion)
EC50 (read off the curve): 300 nM

Source: patent US20260092097A1, “MULTIMERIC IL-15 SOLUBLE FUSION MOLECULES AND METHODS OF MAKING AND USING SAME” (published 2026)
